The source of these data is PMC10327353 (Breast Cancer Research : BCR, 2023).

Amino acid sequences for entries named in this document (tags omitted). Residues count along the entry.
UniProt P04626, 23-1255 limits assumed: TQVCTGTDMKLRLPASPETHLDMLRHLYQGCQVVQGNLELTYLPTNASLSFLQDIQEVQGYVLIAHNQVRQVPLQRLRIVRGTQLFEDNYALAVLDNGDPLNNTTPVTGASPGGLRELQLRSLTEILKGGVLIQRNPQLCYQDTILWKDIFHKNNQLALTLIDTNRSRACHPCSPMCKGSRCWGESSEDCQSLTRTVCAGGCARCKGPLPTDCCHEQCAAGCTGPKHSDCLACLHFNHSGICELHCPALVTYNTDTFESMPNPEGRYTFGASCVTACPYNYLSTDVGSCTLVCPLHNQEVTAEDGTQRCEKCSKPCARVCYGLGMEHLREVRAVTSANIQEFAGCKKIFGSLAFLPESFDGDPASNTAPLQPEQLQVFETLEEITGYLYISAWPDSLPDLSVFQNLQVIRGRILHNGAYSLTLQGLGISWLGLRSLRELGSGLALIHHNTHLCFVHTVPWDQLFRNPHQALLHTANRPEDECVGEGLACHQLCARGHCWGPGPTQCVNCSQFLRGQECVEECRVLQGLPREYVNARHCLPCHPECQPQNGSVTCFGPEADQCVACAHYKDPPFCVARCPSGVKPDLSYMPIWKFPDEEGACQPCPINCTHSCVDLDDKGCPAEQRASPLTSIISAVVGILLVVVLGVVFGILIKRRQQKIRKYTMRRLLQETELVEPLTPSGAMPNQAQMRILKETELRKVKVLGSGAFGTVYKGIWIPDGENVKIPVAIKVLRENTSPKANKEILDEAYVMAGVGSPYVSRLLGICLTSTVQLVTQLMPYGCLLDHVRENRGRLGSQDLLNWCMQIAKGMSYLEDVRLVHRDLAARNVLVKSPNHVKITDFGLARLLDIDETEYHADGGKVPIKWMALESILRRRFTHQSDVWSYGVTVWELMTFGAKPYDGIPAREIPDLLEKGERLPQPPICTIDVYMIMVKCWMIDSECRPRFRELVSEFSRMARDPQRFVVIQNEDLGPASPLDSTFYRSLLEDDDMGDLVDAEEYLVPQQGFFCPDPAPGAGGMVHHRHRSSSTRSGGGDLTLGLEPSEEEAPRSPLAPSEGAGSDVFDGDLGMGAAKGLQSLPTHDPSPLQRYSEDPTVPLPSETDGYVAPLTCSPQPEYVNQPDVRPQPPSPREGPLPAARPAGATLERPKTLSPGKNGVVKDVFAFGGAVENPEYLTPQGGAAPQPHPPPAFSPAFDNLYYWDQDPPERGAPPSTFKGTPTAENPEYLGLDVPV
UniProt P08183, whole entry: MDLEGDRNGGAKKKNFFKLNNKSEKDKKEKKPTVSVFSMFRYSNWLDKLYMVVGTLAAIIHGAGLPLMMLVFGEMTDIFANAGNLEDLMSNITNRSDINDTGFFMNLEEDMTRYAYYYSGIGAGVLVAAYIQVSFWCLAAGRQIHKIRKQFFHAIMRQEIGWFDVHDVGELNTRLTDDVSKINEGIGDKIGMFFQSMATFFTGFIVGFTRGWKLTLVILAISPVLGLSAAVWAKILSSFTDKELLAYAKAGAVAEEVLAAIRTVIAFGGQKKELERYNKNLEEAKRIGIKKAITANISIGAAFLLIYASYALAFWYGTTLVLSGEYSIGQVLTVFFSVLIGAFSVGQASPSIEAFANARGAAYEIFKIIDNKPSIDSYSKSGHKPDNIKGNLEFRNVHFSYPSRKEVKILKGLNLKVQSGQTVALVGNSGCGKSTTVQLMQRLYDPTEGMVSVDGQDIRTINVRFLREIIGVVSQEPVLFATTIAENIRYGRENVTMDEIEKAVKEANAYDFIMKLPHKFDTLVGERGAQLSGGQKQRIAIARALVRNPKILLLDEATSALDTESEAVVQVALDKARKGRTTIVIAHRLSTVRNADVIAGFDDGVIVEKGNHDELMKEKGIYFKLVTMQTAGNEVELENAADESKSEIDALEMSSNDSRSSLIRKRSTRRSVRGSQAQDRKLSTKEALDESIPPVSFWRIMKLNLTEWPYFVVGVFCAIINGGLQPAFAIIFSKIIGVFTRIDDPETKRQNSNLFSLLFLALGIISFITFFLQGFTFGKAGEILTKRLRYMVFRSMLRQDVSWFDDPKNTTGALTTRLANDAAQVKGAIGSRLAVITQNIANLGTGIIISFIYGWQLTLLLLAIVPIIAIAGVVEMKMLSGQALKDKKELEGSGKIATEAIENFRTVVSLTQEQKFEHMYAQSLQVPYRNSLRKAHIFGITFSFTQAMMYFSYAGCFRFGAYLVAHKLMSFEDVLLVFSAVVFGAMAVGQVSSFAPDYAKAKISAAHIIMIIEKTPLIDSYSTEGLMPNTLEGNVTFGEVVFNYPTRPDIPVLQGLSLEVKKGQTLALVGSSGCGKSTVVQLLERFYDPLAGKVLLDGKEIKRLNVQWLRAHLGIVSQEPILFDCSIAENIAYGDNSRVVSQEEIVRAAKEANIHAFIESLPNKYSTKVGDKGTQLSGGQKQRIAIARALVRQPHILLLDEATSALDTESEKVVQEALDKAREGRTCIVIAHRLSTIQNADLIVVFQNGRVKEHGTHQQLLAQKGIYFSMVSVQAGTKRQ

Marks after values point to notes of the source that are not given here.

The subject of one series is BT474C1 cells. Kind of series: Cell proliferation assay (CellTiter-Glo), BT474C1. The following applies: BT474C1, 72 hrs.
Series [1] deals with T1, HER2 (Homo sapiens, UniProt P04626). Put plainly: pHER2 MSD assay in BT474C1 cells. In kind it is cell-based. The following applies: read-out: pHER2 IC50; BT474C1, 4 hrs treatment.
Another series concerns the target P-gp (MDR1) (Homo sapiens, UniProt P08183). Put plainly: P-gp efflux ratio, bi-directional transport assay.
Series [2] can be described thus: Phase 1 study: plasma pharmacokinetics.
The target in series [3] is T1, HER2. Kind of series: In vitro HER2 enzymatic assay (Lance Ultra Kinase Assay). The following applies: read-out: IC50 against HER2 in the enzymatic assay; recombinant HER2, 2 mM ATP.
Series [4] in a line: Human hepatocyte intrinsic clearance. It counts as in vitro ADME. The following applies: human hepatocytes.
Series [5] in a line: In vivo CNS-PK study in monkey. The following applies: single PO dose of DZD1516 30 mg/kg.
In the next series the test system is P-gp-BCRP. Kind of series: P-gp-BCRP efflux ratio, cellular transport assay. It counts as in vitro ADME, human.
A short description of series [6]: Phase 1 study: CSF penetration (Kp,uu,CSF).

On to `Cc1cc(Nc2ncnc3cccc(OC4CCN(C)CC4(F)F)c23)ccc1Oc1ccn2ncnc2c1` (single isomer, unassigned) [Cpd-3], for which the GI50 in the series on BT474C1 cells worked out at 25 nM. The IC50 on HER2 [1] was 11 nM. In addition, the Efflux ratio P-gp @1 µM on P-gp (MDR1) stood at 0.84.
Consider `COc1cc(O[C@H]2CCNCC2(F)F)c2c(Nc3ccc(Oc4ccn5ncnc5c4)c(C)c3)ncnc2c1`, for which, in series [2] (Day 1, 250 mg DZD1516), the “AUC0-10, Geometric Mean [CV%]” value is 3400 [51.89] hr*ng/mL; the “AUC0-72, Geometric Mean [CV%]” value was 7146 [48.56] hr*ng/mL; the “Cmax, Geometric Mean [CV%]” value was 738.0 [61.14] ng/mL; the “t1/2, Mean (SD)” value is recorded as 13.36 (4.503)^a hr. The “tmax, Median (Min, Max)” value in [2] (Day 1, 250 mg DZD1516) was 5.867 (1.97,7.97) hr. In series [2] (Day 15, 250 mg BID DZD1516), the “AUC0-10, Geometric Mean [CV%]” value was 4401 [55.16] hr*ng/mL; the “Css,max, Geometric Mean [CV%]” value is 724.0 [44.98] ng/mL; the “Css,min, Geometric Mean [CV%]” value was 237.1 [57.36] ng/mL; the “tss,max, Median (Min, Max)” value was 2.383 (0.000,4.00) hr. Also, the “MRAUC, Mean (SD)” value in [2] (Day 15, 250 mg BID, DZ2678(AUC0-10)/DZD1516(AUC0-10)) is given as 0.5970 (0.1106). Also, the IC50 at HER2 [3] was found to be 0.95 nM. Also, the “Human Heps Clint” value in [4] is 7.7 (µL/min)/(10^6 cells). Further, the Kp,uu,CSF in [5] worked out at 0.865. The molecule also came in with a GI50 in the series on BT474C1 cells of 13 nM. In addition, the Efflux ratio P-gp-BCRP @1 µM with P-gp-BCRP (1 µM) worked out at 6.5. Besides, in the series on P-gp-BCRP (in vitro), the “active efflux via P-gp and BCRP” value is “do not undergo active efflux via P-gp and BCRP in vitro”. The Efflux ratio P-gp @1 µM on P-gp (MDR1) was found to be 2.8. For the same molecule, in [6] (50 mg, subject 1), the CSF conc was found to be 0.549 nmol/L, the Free plasma conc is 2.52 nM and the Kp,uu,CSF was determined as 0.218. Also, in series [6] (50 mg, subject 2), the CSF conc is 1.12 nmol/L, the Free plasma conc was 1.47 nM and the Kp,uu,CSF was 0.765. Besides, in series [6] (100 mg, subject 3), the CSF conc is given as 3.15 nmol/L, the Free plasma conc was 7.23 nM and the Kp,uu,CSF was found to be 0.436. In [6] (100 mg, subject 4), this molecule gave a CSF conc of 2.10 nmol/L, a Free plasma conc of 1.31 nM and a Kp,uu,CSF of 1.6. In series [6] (100 mg, subject 5), this molecule had a CSF conc of 1.65 nmol/L, a Free plasma conc of 1.66 nM and a Kp,uu,CSF of 0.995. In series [6] (200 mg, subject 6), this molecule displayed a CSF conc of 3.95 nmol/L, a Free plasma conc of 7.20 nM and a Kp,uu,CSF of 0.549. In series [6] (250 mg, subject 7), this molecule gave a CSF conc of 3.88 nmol/L, a Free plasma conc of 9.15 nM and a Kp,uu,CSF of 0.424. In addition, in series [6] (250 mg, subject 8), the CSF conc was 9.13 nmol/L, the Free plasma conc is 8.58 nM and the Kp,uu,CSF was 1.06. Besides, the mean Kp,uu,CSF in series [6] (patients with CNS metastases) is 0.76.

As usually defined, the GI50 is the concentration that inhibits growth by half. For orientation: IC50 means the midpoint of a concentration-inhibition curve.
